Reference: patent US6387406B1, “Copolymer compositions for oral delivery” (Supratek Pharma Inc., priority 1992, dated 2002)

Details: mouse, in vivo, iv

For Pluronic P85, the “Polymer content Spleen” value was 0.47 % of initial dose per organ.
